Measured values taken from ChEMBL document CHEMBL3885861, “Open TG-GATES”.

Key:
Rattus norvegicus [1] = species: Rattus norvegicus; assay: Open TG-GATES - Regimen: Daily Repeat; assay type: toxicity, organism-based, Sprague-Dawley; parameters: regimen Daily Repeat, gender Male, age 6 weeks; settings: in vivo, po, route gavage; for LIVER: tissue Liver
Rattus norvegicus [2] = species: Rattus norvegicus; assay: Open TG-GATES - Regimen: Single; assay type: toxicity, organism-based, Sprague-Dawley; parameters: regimen Single, gender Male, age 6 weeks; settings: in vivo, po, route gavage
[3] = 0 mg/kg, […], tissue Plasma, dose level Control, time 14 day
[4] = 1 mg/kg, 72 h, tissue Blood, dose level Low, time 3 day
[5] = 1 mg/kg, […], tissue Blood, dose level Low, time 14 day
[6] = 1 mg/kg, […], tissue Plasma, dose level Low, time 28 day
[7] = 3 mg/kg, […], tissue Plasma, dose level Middle, time 28 day
[8] = 0 mg/kg, 3 h, tissue Plasma, dose level Control
[9] = 0 mg/kg, 6 h, tissue Blood, dose level Control
[10] = 0 mg/kg, 6 h, tissue Plasma, dose level Control
[11] = 0 mg/kg, 9 h, tissue Blood, dose level Control
[12] = 0 mg/kg, 9 h, tissue Plasma, dose level Control
[13] = 0 mg/kg, 24 h, tissue Plasma, dose level Control
[14] = 6 mg/kg, 3 h, tissue Plasma, dose level Low
[15] = 6 mg/kg, 6 h, tissue Plasma, dose level Low
[16] = 6 mg/kg, 9 h, tissue Plasma, dose level Low
[17] = 6 mg/kg, 24 h, tissue Plasma, dose level Low
[18] = 20 mg/kg, 3 h, tissue Plasma, dose level Middle
[19] = 20 mg/kg, 6 h, tissue Plasma, dose level Middle
[20] = 20 mg/kg, 9 h, tissue Plasma, dose level Middle
[21] = 20 mg/kg, 24 h, tissue Plasma, dose level Middle
[22] = 60 mg/kg, 3 h, tissue Plasma, dose level High
[23] = 60 mg/kg, 6 h, tissue Plasma, dose level High
[24] = 60 mg/kg, 9 h, tissue Plasma, dose level High
[25] = 60 mg/kg, 24 h, tissue Plasma, dose level High
[26] = 30 mg/kg, 6 h, tissue Plasma, dose level Middle
[27] = 30 mg/kg, 24 h, tissue Blood, dose level Middle

SMILES: O=C(O)Cc1ccccc1Nc1c(Cl)cccc1Cl [DICLOFENAC]
- LIVER (Rattus norvegicus [1]; 0 mg/kg, 72 h, dose level Control, time 3 day): 11.7 g
- Cl (Rattus norvegicus [1]; 0 mg/kg, 72 h, tissue Plasma, dose level Control, time 3 day): 102 meq/L
- LIVER (Rattus norvegicus [1]; 0 mg/kg, […], dose level Control, time 14 day): 13.8 g
- AST (Rattus norvegicus [1]; [3]): 59.8 IU/L
- Ca (Rattus norvegicus [1]; [3]): 10.4 mg/dL
- Cl (Rattus norvegicus [1]; [3]): 102.4 meq/L
- Lym (Rattus norvegicus [1]; [4]): 79.4%
- MCH (Rattus norvegicus [1]; [4]): 21.6 pg
- MCHC (Rattus norvegicus [1]; [4]): 34.9%
- ALT (Rattus norvegicus [1]; 1 mg/kg, 72 h, tissue Plasma, dose level Low, time 3 day): 40.8 IU/L
- MCH (Rattus norvegicus [1]; [5]): 21.1 pg
- MCV (Rattus norvegicus [1]; [5]): 59.1 fL
- LIVER (Rattus norvegicus [1]; 1 mg/kg, […], dose level Low, time 14 day): 13.7 g
- Ca (Rattus norvegicus [1]; [6]): 10.2 mg/dL
- Cl (Rattus norvegicus [1]; [6]): 103 meq/L
- TC (Rattus norvegicus [1]; [6]): 63.2 mg/dL
- TG (Rattus norvegicus [1]; [6]): 128.8 mg/dL
- MCV (Rattus norvegicus [1]; 3 mg/kg, 72 h, tissue Blood, dose level Middle, time 3 day): 62.1 fL
- Cl (Rattus norvegicus [1]; 3 mg/kg, 72 h, tissue Plasma, dose level Middle, time 3 day): 103.2 meq/L
- Lym (Rattus norvegicus [1]; 3 mg/kg, […], tissue Blood, dose level Middle, time 14 day): 81.6%
- Neu (Rattus norvegicus [1]; 3 mg/kg, […], tissue Blood, dose level Middle, time 28 day): 12.4%
- LIVER (Rattus norvegicus [1]; 3 mg/kg, […], dose level Middle, time 14 day): 13.4 g
- Cl (Rattus norvegicus [1]; 3 mg/kg, […], tissue Plasma, dose level Middle, time 14 day): 102.6 meq/L
- ALT (Rattus norvegicus [1]; [7]): 33.6 IU/L
- TG (Rattus norvegicus [1]; [7]): 90.6 mg/dL
- MCHC (Rattus norvegicus [1]; 10 mg/kg, 72 h, tissue Blood, dose level High, time 3 day): 34.8%
- MCV (Rattus norvegicus [1]; 10 mg/kg, […], tissue Blood, dose level High, time 14 day): 63.6 fL
- Ret (Rattus norvegicus [1]; 10 mg/kg, […], tissue Blood, dose level High, time 28 day): 12.3%
- LIVER (Rattus norvegicus [1]; 10 mg/kg, […], dose level High, time 28 day): 13.7 g
- Cl (Rattus norvegicus [1]; 10 mg/kg, […], tissue Plasma, dose level High, time 14 day): 103.6 meq/L
- Ca (Rattus norvegicus [1]; 10 mg/kg, […], tissue Plasma, dose level High, time 28 day): 10.1 mg/dL

SMILES: CC/C(=C(\c1ccccc1)c1ccc(OCCN(C)C)cc1)c1ccccc1 [TAMOXIFEN]
- ALP (Rattus norvegicus [2]; [8]): 1623.6 IU/L
- Ca (Rattus norvegicus [2]; [8]): 11.1 mg/dL
- PL (Rattus norvegicus [2]; [8]): 162.2 mg/dL
- Ret (Rattus norvegicus [2]; [9]): 9.2%
- ALP (Rattus norvegicus [2]; [10]): 1734.2 IU/L
- Ca (Rattus norvegicus [2]; [10]): 10.8 mg/dL
- PL (Rattus norvegicus [2]; [10]): 144.2 mg/dL
- Ret (Rattus norvegicus [2]; [11]): 9.8%
- Ca (Rattus norvegicus [2]; [12]): 10.5 mg/dL
- PL (Rattus norvegicus [2]; [12]): 140.8 mg/dL
- ALP (Rattus norvegicus [2]; [13]): 1627.6 IU/L
- Ca (Rattus norvegicus [2]; [13]): 11 mg/dL
- ALP (Rattus norvegicus [2]; [14]): 1574.2 IU/L
- Ca (Rattus norvegicus [2]; [14]): 11.2 mg/dL
- PL (Rattus norvegicus [2]; [14]): 157.8 mg/dL
- Ret (Rattus norvegicus [2]; 6 mg/kg, 6 h, tissue Blood, dose level Low): 10%
- ALP (Rattus norvegicus [2]; [15]): 1443.6 IU/L
- Ca (Rattus norvegicus [2]; [15]): 10.9 mg/dL
- PL (Rattus norvegicus [2]; [15]): 135.2 mg/dL
- ALP (Rattus norvegicus [2]; [16]): 1512.4 IU/L
- PL (Rattus norvegicus [2]; [16]): 118 mg/dL
- Ret (Rattus norvegicus [2]; 6 mg/kg, 24 h, tissue Blood, dose level Low): 8.5%
- ALP (Rattus norvegicus [2]; [17]): 1778.4 IU/L
- Ca (Rattus norvegicus [2]; [17]): 11 mg/dL
- PL (Rattus norvegicus [2]; [17]): 118 mg/dL
- Ret (Rattus norvegicus [2]; 20 mg/kg, 3 h, tissue Blood, dose level Middle): 10.2%
- ALP (Rattus norvegicus [2]; [18]): 1976.4 IU/L
- Ca (Rattus norvegicus [2]; [18]): 11.1 mg/dL
- PL (Rattus norvegicus [2]; [18]): 168.8 mg/dL
- Ret (Rattus norvegicus [2]; 20 mg/kg, 6 h, tissue Blood, dose level Middle): 10%
- ALP (Rattus norvegicus [2]; [19]): 1509.6 IU/L
- Ca (Rattus norvegicus [2]; [19]): 10.5 mg/dL
- PL (Rattus norvegicus [2]; [19]): 137.8 mg/dL
- Ret (Rattus norvegicus [2]; 20 mg/kg, 9 h, tissue Blood, dose level Middle): 10%
- ALP (Rattus norvegicus [2]; [20]): 1531.4 IU/L
- PL (Rattus norvegicus [2]; [20]): 108.4 mg/dL
- Ret (Rattus norvegicus [2]; 20 mg/kg, 24 h, tissue Blood, dose level Middle): 9.7%
- ALP (Rattus norvegicus [2]; [21]): 1751.4 IU/L
- Ca (Rattus norvegicus [2]; [21]): 10.9 mg/dL
- PL (Rattus norvegicus [2]; [21]): 117.4 mg/dL
- ALP (Rattus norvegicus [2]; [22]): 1502.2 IU/L
- Ca (Rattus norvegicus [2]; [22]): 11 mg/dL
- PL (Rattus norvegicus [2]; [22]): 153.2 mg/dL
- ALP (Rattus norvegicus [2]; [23]): 1465.4 IU/L
- Ca (Rattus norvegicus [2]; [23]): 10.5 mg/dL
- PL (Rattus norvegicus [2]; [23]): 136.2 mg/dL
- Ret (Rattus norvegicus [2]; 60 mg/kg, 9 h, tissue Blood, dose level High): 10.4%
- ALP (Rattus norvegicus [2]; [24]): 1543 IU/L
- Ca (Rattus norvegicus [2]; [24]): 10.4 mg/dL
- PL (Rattus norvegicus [2]; [24]): 140.2 mg/dL
- Ret (Rattus norvegicus [2]; 60 mg/kg, 24 h, tissue Blood, dose level High): 8.9%
- ALP (Rattus norvegicus [2]; [25]): 1941.4 IU/L
- Ca (Rattus norvegicus [2]; [25]): 10.9 mg/dL

SMILES: CN(C)CCCN1c2ccccc2CCc2ccc(Cl)cc21 [CLOMIPRAMINE]
- RBC (Rattus norvegicus [2]; 0 mg/kg, 3 h, tissue Blood, dose level Control): 644.8 x10_4/ul
- Ca (Rattus norvegicus [2]; [8]): 10.6 mg/dL
- Cl (Rattus norvegicus [2]; [8]): 105 meq/L
- RBC (Rattus norvegicus [2]; [9]): 650.2 x10_4/ul
- Cl (Rattus norvegicus [2]; [10]): 103.6 meq/L
- RBC (Rattus norvegicus [2]; [11]): 636.8 x10_4/ul
- Ca (Rattus norvegicus [2]; [12]): 10.6 mg/dL
- Cl (Rattus norvegicus [2]; [12]): 105.4 meq/L
- RBC (Rattus norvegicus [2]; 0 mg/kg, 24 h, tissue Blood, dose level Control): 655.6 x10_4/ul
- Cl (Rattus norvegicus [2]; [13]): 103 meq/L
- TG (Rattus norvegicus [2]; [13]): 126.2 mg/dL
- RBC (Rattus norvegicus [2]; 10 mg/kg, 3 h, tissue Blood, dose level Low): 677.4 x10_4/ul
- Cl (Rattus norvegicus [2]; 10 mg/kg, 3 h, tissue Plasma, dose level Low): 104.4 meq/L
- RBC (Rattus norvegicus [2]; 10 mg/kg, 6 h, tissue Blood, dose level Low): 667.2 x10_4/ul
- Cl (Rattus norvegicus [2]; 10 mg/kg, 6 h, tissue Plasma, dose level Low): 104.8 meq/L
- RBC (Rattus norvegicus [2]; 10 mg/kg, 9 h, tissue Blood, dose level Low): 645.6 x10_4/ul
- Cl (Rattus norvegicus [2]; 10 mg/kg, 9 h, tissue Plasma, dose level Low): 104.4 meq/L
- RBC (Rattus norvegicus [2]; 10 mg/kg, 24 h, tissue Blood, dose level Low): 654.4 x10_4/ul
- LIVER (Rattus norvegicus [2]; 10 mg/kg, 24 h, tissue Liver, dose level Low): 10.6 g
- Cl (Rattus norvegicus [2]; 10 mg/kg, 24 h, tissue Plasma, dose level Low): 104 meq/L
- Cl (Rattus norvegicus [2]; 30 mg/kg, 3 h, tissue Plasma, dose level Middle): 104.8 meq/L
- RBC (Rattus norvegicus [2]; 30 mg/kg, 6 h, tissue Blood, dose level Middle): 698.2 x10_4/ul
- Ca (Rattus norvegicus [2]; [26]): 10.6 mg/dL
- Cl (Rattus norvegicus [2]; [26]): 104.8 meq/L
- RBC (Rattus norvegicus [2]; 30 mg/kg, 9 h, tissue Blood, dose level Middle): 681.8 x10_4/ul
- Cl (Rattus norvegicus [2]; 30 mg/kg, 9 h, tissue Plasma, dose level Middle): 104.6 meq/L
- Hb (Rattus norvegicus [2]; [27]): 13.3 g/dL
- RBC (Rattus norvegicus [2]; [27]): 645.2 x10_4/ul
- Cl (Rattus norvegicus [2]; 30 mg/kg, 24 h, tissue Plasma, dose level Middle): 103.4 meq/L
- RBC (Rattus norvegicus [2]; 100 mg/kg, 3 h, tissue Blood, dose level High): 668.8 x10_4/ul
- Cl (Rattus norvegicus [2]; 100 mg/kg, 3 h, tissue Plasma, dose level High): 105 meq/L
- RBC (Rattus norvegicus [2]; 100 mg/kg, 6 h, tissue Blood, dose level High): 663.8 x10_4/ul
- RBC (Rattus norvegicus [2]; 100 mg/kg, 9 h, tissue Blood, dose level High): 669.6 x10_4/ul
- Cl (Rattus norvegicus [2]; 100 mg/kg, 9 h, tissue Plasma, dose level High): 105 meq/L
- RBC (Rattus norvegicus [2]; 100 mg/kg, 24 h, tissue Blood, dose level High): 684.2 x10_4/ul
- Cl (Rattus norvegicus [2]; 100 mg/kg, 24 h, tissue Plasma, dose level High): 104.4 meq/L
